Patent US12595288B2 (priority 2020, dated 2026)

Protein sequences, listed by entry. Tags and fused reporters are not part of them. Residues count along the entry.
UniProt P42574, 29-277 limits assumed: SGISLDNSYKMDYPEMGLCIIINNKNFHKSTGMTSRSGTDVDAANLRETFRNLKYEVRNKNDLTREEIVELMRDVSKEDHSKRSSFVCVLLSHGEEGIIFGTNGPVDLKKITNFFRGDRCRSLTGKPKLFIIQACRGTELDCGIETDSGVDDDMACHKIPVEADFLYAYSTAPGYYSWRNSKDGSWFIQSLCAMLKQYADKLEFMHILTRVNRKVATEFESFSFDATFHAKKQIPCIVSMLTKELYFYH

Molecular target: Caspase 3 (Homo sapiens, UniProt P42574)
Format: biochemical
Conditions: read-out: Compound IC50

## CC(=O)N[C@@H](CC(=O)O)C(=O)N[C@@H](CCC(=O)O)C(=O)N[C@H](C(=O)N[C@H](C=O)CC(=O)O)C(C)C [DEVD-CHO]
  IC50: 2.35 nM
